Where two headings read alike, the source gives them in different places.
Legend:
[1] = tested on: RAW 264.7 cells; assay type: cell-based, mouse; conditions: RAW 264.7, H3N2 virus, 4 hours; 0.5 μM CPT, 100 nM TPT
[2] = tested on: RAW 264.7 cells

SMILES | PAMP-induced gene expression [1] | concentration at which DNA damage was detectable, relative to the concentration selected ([2]; mouse) | DNA damage (H2AX staining) at the concentration used ([2]; RAW 264.7, 0.5 μM CPT, 100 nM TPT, 6 hours p.i.) | concentration at which DNA damage was detectable, relative to the concentration selected ([2]; RAW 264.7, selected 0.5 μM CPT, 100 nM TPT)
CC[C@@]1(O)C(=O)OCc2c1cc1n(c2=O)Cc2cc3c(CN(C)C)c(O)ccc3nc2-1 [TPT, Topotecan] | inhibitory effect | 100 times higher | – | –
CC[C@@]1(O)C(=O)OCc2c1cc1n(c2=O)Cc2cc3ccccc3nc2-1 [CPT, Camptothecin] | inhibitory effect | – | neither TPT- nor CPT-treated cells displayed DNA damage | 20 times higher
